Target: SARS-CoV-2 3CLpro (Severe acute respiratory syndrome coronavirus 2, UniProt P0DTD1)
Conditions: sheet LOPAC_screen_w_protease, primary screen with protease, compound at 5 µM; for mean: mean of two replicates; for Replicate_1: replicate 1; for Replicate_2: replicate 2

Row | Compound | mean | Replicate_1 | Replicate_2
1 | CC(C(O)c1ccc(O)cc1)N1CCC(Cc2ccccc2)CC1.CC(C(O)c1ccc(O)cc1)N1CCC(Cc2ccccc2)CC1.O=C(O)C(O)C(O)C(=O)O (stereo not drawn) [Ifenprodil tartrate] | 2.584 | 3.5123 | 1.6558
2 | CCN1CCC[C@H]1CNC(=O)c1c(O)c(Cl)cc(Cl)c1OC.O=C(O)C(O)C(O)C(=O)O (racemic) [S(+)-Raclopride L-tartrate] | 3.077 | 3.795 | 2.359
